Values quoted from earlier work in patent publication US9643951B2, “Compound having somatostatin receptor agonistic activity and pharmaceutical use thereof” (ONO PHARMACEUTICAL CO., LTD., priority 2013, dated 2017).

Chains of the proteins cited; added tags and fusions are not shown.
UniProt P35346, whole entry, species assumed: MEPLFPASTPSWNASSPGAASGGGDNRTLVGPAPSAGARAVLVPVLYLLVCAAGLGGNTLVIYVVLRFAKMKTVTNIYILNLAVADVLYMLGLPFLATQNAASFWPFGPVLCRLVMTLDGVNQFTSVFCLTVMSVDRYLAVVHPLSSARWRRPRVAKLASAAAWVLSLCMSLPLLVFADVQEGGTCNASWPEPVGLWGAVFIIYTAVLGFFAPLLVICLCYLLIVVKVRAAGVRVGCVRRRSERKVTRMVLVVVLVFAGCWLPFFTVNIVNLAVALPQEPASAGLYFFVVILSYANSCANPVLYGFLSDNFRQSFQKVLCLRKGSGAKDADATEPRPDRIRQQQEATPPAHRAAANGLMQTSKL
UniProt P30874, whole entry, species assumed: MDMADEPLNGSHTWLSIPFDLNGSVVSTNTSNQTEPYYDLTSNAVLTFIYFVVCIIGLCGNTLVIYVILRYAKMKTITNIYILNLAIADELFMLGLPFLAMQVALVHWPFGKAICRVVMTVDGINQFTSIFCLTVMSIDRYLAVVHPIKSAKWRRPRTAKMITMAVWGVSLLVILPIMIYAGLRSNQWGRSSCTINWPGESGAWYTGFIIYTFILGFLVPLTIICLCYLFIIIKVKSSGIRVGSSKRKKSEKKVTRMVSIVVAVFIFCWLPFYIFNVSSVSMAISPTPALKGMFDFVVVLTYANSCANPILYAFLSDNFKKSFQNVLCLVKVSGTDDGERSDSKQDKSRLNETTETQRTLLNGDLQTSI
UniProt P32745, whole entry, species assumed: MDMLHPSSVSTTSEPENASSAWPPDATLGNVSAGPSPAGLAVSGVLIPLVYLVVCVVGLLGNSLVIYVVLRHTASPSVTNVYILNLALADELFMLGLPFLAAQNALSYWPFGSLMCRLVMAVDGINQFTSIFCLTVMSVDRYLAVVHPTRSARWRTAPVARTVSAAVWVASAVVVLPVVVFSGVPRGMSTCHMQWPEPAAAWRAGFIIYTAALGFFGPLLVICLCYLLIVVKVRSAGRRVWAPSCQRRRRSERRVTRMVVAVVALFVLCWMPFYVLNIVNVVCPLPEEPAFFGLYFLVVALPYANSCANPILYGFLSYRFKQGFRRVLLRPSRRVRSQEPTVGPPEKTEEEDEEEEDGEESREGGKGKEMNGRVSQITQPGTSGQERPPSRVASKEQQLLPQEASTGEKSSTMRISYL
UniProt P30872, whole entry, species assumed: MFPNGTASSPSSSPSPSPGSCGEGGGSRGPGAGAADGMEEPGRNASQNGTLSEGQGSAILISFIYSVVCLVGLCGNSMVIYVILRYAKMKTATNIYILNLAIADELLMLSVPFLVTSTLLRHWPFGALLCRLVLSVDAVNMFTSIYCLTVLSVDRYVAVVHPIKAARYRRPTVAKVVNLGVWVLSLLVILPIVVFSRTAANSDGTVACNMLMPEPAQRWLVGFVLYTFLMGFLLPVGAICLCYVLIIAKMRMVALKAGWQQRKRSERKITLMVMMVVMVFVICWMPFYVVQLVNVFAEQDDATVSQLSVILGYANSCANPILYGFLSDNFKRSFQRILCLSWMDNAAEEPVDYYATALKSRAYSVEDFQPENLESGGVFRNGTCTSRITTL
UniProt P31391, whole entry, species assumed: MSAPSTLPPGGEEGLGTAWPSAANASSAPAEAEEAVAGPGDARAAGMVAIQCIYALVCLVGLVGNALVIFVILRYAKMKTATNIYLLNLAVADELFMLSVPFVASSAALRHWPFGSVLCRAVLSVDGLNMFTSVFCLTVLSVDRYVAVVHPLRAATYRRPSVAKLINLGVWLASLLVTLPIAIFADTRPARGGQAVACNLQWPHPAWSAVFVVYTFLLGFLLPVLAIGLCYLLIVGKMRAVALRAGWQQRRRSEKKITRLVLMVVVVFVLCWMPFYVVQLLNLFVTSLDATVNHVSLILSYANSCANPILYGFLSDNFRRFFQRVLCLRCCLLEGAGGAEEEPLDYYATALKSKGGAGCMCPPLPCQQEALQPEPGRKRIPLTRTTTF

Experiments:
Details in all cases: reported; cited from earlier work
[1] = target: somatostatin receptor subtype 5 (SSTR5) (Homo sapiens, UniProt P35346)
[2] = target: somatostatin receptor subtype 2 (SSTR2) (Homo sapiens, UniProt P30874)
[3] = target: somatostatin receptor subtype 3 (SSTR3) (Homo sapiens, UniProt P32745)
[4] = target: somatostatin receptor subtype 1 (SSTR1) (Homo sapiens, UniProt P30872)
[5] = target: somatostatin receptor subtype 4 (SSTR4) (Homo sapiens, UniProt P31391)

## octreotide acetate
[1]
  binding affinity to SSTR5: moderate affinity
[2]
  binding affinity to SSTR2: high affinity
[3]
  binding affinity to SSTR3: moderate affinity
[4]
  binding to SSTR1: do not bind
[5]
  binding to SSTR4: do not bind
